Test results published in article PMC10744302.

Experiments:
[1] = target: CCR5-Rluc (wild-type human CCR5, HA-tagged, fused upstream of Renilla luciferase) (human) (UniProt P51681); test: FRET or BRET; BRET saturation assay in living HEK-293 cells: constant amount of Rluc donor plasmid (CCR5 or mutant), increasing amounts of YFP acceptor plasmid; coelenterazine h 5 µM; BRET50 = YFP/Rluc ratio at 50% saturation, one-site fit
[2] = target: CCR5 I3-1,2,3-Rluc (human) (UniProt P51681); test: as above

Row | BRET50 (YFP/Rluc ratio) [1] | BRET50 (YFP/Rluc ratio) [2] | Substance
1 | 4.9 |  | CD4-YFP (from UniProt P01730 26-458) (receptor; other documents disagree on this pair)
2 |  | 20.5 | CD4-YFP (from UniProt P01730 26-458) (receptor)
